A value given as a limit tells only on which side of the number the result lay.

Chains of the proteins cited; added tags and fusions are not shown.
UniProt P22001, whole entry: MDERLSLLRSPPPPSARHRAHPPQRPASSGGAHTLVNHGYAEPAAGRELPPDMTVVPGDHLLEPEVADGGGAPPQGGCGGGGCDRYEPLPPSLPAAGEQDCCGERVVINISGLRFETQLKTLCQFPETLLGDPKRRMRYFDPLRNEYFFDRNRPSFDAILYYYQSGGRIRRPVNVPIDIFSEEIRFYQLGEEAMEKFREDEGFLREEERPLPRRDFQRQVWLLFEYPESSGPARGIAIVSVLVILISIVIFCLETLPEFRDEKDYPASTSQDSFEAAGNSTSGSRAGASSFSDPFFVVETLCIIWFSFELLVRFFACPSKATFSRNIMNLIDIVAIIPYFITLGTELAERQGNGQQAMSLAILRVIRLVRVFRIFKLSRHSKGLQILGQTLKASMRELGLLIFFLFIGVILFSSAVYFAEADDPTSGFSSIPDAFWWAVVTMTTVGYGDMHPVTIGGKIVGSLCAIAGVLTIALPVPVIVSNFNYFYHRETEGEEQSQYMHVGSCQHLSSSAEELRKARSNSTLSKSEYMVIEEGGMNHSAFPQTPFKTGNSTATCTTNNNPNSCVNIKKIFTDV

The target in this experiment is Kv1.3 (Homo sapiens, UniProt P22001). Put plainly: Electrophysiology: planar patch-clamp of Kv1.3 currents, IC50 from steady state current amplitude. The following applies: read-out: IC50 (Kv1.3 ephys steady state), Kv1.3 electrophysiology, results according to Method D1. As for the experimental part:
The inhibition data shown for the compounds of the list below was calculated using the steady state current amplitude at the end of the depolarising pulse in patch clamp evaluations (as described in the Biology Protocols: 1. Electrophysiology).
Kv1.x currents were measured in Kv1.3/CHO or Kv1.5/CHO cells using a planar electrode version (Nanion Technologies GMBH) of the patch-clamp technique. Whole-cell Kv1.x current transients were evoked by 500 ms depolarising voltage pulses to +40 mV from a holding potential of −80 mV applied at 10 s intervals for Kv1.5 and at 30 s intervals for Kv1.3 to allow adequate time for recovery from inactivation. Cells were continuously bathed in a buffered saline solution containing (mM): 160 NaCl, 4.5 KCl, 2 CaCl2, 1 MgCl2, 5 glucose, 10 HEPES, pH 7.4, 290-310 mOsm·Kg^−1. The internal (pipette) solution contained (mM): 10 NaCl, 70 KF, 75 KCl, 2 MgCl2, 10 HEPES, 10 EGTA, pH 7.2, 290-310 mOsm·Kg^−1. Series resistance compensation (60-80%) was applied to cells in which the peak current amplitude exceeded 2 nA.
Compound Preparation and Potency Assessment
Compounds were initially dissolved in DMSO to 10 mM. After further dilution in DMSO, compounds were finally diluted in bath solution 1/200 (to give a final DMSO concentration of 0.5%) and applied directly to the recording chamber. Compounds were added at increasing concentrations allowing ample time for steady state block to be achieved between each concentration. Each compound was tested at 5-6 different concentrations on 2-3 cells. Compound IC50 values were determined by fitting the average normalised reduction of either the current integral or the steady state current amplitude at the end of the 500 ms depolarising pulse obtained at each compound concentration to the Hill equation. The IC50 data reported herein is based on the steady state calculation.
A word on the IC50: it is the concentration at which inhibition is half-maximal. `CC(C)CC(c1ncnn1C)N(Cc1ccc(C(F)(F)F)nc1)C(=O)C[C@@H](C)c1ccc(F)cc1` (stereo partly drawn): the IC50 fell in the range of 200 to 1000 nM.

Regarding `CS(=O)(=O)c1cccc(CN(C(=O)[C@@H]2C[C@H]2c2ccc(F)cc2)C(c2ccc(Cl)cc2)C2CC2)n1` (stereo partly drawn), the 50% inhibitory concentration (IC50) was < 50 nM.

In the case of `CCC(c1ncnn1C)N(Cc1ccc(C(F)(F)F)nc1)C(=O)[C@@H]1C[C@H]1c1ccc(F)cc1` (stereo partly drawn), the IC50 fell in the range of 200 to 1000 nM.

`CC(C)Cc1noc(C(C)N(Cc2ccc(C(F)(F)F)nc2)C(=O)[C@@H]2C[C@H]2c2ccc(F)cc2)n1` (single isomer, unassigned): the half-inhibitory concentration (IC50) fell in the range of 50 to 200 nM.

As to `COCC(c1ccnn1C)N(Cc1ccc(C(F)(F)F)nc1)C(=O)CS(=O)(=O)c1ccc(F)cc1` (stereo not drawn), the IC50 fell in the range of 200 to 1000 nM.

With `CCS(=O)(=O)c1cccc(C(C2CCOCC2)N(Cc2ncccc2F)C(=O)C2CC2c2ccc(F)cc2)c1` (stereo not drawn), the half-maximal inhibitory concentration (IC50) is 200 to 1000 nM.

With `O=C(C1CC1c1ccc(F)cc1)N(Cc1ccc(F)cn1)C(c1ccc(OC(F)F)cc1)C1CCNCC1` (stereo not drawn), the IC50 fell in the range of 200 to 1000 nM.

Regarding `CC(C)C(c1ccc(OC(F)F)cc1)N(Cc1ccc(F)c[n+]1[O-])C(=O)[C@@H]1C[C@H]1c1ccc(F)cc1` (stereo partly drawn), the IC50 fell in the range of 50 to 200 nM.

Consider `CC(C)CC(c1ncnn1C)N(Cc1ccc(C(F)(F)F)nc1)C(=O)[C@@H]1C[C@H]1c1ccc(F)cc1` (stereo partly drawn), for which the 50% inhibitory concentration (IC50) lay within 50 to 200 nM.

For the origin of these results see patent US9493451B2 (Bionomics Limited, priority 2011, dated 2016).
